Experimental data: publication PMC8019157 (Antiviral research, 2021)

By UniProt entry, the sequences of proteins in these tests, tags left out. Where a name states a change or a piece, a line headed by the entry shows the natural chain unless it says otherwise.
UniProt P11716: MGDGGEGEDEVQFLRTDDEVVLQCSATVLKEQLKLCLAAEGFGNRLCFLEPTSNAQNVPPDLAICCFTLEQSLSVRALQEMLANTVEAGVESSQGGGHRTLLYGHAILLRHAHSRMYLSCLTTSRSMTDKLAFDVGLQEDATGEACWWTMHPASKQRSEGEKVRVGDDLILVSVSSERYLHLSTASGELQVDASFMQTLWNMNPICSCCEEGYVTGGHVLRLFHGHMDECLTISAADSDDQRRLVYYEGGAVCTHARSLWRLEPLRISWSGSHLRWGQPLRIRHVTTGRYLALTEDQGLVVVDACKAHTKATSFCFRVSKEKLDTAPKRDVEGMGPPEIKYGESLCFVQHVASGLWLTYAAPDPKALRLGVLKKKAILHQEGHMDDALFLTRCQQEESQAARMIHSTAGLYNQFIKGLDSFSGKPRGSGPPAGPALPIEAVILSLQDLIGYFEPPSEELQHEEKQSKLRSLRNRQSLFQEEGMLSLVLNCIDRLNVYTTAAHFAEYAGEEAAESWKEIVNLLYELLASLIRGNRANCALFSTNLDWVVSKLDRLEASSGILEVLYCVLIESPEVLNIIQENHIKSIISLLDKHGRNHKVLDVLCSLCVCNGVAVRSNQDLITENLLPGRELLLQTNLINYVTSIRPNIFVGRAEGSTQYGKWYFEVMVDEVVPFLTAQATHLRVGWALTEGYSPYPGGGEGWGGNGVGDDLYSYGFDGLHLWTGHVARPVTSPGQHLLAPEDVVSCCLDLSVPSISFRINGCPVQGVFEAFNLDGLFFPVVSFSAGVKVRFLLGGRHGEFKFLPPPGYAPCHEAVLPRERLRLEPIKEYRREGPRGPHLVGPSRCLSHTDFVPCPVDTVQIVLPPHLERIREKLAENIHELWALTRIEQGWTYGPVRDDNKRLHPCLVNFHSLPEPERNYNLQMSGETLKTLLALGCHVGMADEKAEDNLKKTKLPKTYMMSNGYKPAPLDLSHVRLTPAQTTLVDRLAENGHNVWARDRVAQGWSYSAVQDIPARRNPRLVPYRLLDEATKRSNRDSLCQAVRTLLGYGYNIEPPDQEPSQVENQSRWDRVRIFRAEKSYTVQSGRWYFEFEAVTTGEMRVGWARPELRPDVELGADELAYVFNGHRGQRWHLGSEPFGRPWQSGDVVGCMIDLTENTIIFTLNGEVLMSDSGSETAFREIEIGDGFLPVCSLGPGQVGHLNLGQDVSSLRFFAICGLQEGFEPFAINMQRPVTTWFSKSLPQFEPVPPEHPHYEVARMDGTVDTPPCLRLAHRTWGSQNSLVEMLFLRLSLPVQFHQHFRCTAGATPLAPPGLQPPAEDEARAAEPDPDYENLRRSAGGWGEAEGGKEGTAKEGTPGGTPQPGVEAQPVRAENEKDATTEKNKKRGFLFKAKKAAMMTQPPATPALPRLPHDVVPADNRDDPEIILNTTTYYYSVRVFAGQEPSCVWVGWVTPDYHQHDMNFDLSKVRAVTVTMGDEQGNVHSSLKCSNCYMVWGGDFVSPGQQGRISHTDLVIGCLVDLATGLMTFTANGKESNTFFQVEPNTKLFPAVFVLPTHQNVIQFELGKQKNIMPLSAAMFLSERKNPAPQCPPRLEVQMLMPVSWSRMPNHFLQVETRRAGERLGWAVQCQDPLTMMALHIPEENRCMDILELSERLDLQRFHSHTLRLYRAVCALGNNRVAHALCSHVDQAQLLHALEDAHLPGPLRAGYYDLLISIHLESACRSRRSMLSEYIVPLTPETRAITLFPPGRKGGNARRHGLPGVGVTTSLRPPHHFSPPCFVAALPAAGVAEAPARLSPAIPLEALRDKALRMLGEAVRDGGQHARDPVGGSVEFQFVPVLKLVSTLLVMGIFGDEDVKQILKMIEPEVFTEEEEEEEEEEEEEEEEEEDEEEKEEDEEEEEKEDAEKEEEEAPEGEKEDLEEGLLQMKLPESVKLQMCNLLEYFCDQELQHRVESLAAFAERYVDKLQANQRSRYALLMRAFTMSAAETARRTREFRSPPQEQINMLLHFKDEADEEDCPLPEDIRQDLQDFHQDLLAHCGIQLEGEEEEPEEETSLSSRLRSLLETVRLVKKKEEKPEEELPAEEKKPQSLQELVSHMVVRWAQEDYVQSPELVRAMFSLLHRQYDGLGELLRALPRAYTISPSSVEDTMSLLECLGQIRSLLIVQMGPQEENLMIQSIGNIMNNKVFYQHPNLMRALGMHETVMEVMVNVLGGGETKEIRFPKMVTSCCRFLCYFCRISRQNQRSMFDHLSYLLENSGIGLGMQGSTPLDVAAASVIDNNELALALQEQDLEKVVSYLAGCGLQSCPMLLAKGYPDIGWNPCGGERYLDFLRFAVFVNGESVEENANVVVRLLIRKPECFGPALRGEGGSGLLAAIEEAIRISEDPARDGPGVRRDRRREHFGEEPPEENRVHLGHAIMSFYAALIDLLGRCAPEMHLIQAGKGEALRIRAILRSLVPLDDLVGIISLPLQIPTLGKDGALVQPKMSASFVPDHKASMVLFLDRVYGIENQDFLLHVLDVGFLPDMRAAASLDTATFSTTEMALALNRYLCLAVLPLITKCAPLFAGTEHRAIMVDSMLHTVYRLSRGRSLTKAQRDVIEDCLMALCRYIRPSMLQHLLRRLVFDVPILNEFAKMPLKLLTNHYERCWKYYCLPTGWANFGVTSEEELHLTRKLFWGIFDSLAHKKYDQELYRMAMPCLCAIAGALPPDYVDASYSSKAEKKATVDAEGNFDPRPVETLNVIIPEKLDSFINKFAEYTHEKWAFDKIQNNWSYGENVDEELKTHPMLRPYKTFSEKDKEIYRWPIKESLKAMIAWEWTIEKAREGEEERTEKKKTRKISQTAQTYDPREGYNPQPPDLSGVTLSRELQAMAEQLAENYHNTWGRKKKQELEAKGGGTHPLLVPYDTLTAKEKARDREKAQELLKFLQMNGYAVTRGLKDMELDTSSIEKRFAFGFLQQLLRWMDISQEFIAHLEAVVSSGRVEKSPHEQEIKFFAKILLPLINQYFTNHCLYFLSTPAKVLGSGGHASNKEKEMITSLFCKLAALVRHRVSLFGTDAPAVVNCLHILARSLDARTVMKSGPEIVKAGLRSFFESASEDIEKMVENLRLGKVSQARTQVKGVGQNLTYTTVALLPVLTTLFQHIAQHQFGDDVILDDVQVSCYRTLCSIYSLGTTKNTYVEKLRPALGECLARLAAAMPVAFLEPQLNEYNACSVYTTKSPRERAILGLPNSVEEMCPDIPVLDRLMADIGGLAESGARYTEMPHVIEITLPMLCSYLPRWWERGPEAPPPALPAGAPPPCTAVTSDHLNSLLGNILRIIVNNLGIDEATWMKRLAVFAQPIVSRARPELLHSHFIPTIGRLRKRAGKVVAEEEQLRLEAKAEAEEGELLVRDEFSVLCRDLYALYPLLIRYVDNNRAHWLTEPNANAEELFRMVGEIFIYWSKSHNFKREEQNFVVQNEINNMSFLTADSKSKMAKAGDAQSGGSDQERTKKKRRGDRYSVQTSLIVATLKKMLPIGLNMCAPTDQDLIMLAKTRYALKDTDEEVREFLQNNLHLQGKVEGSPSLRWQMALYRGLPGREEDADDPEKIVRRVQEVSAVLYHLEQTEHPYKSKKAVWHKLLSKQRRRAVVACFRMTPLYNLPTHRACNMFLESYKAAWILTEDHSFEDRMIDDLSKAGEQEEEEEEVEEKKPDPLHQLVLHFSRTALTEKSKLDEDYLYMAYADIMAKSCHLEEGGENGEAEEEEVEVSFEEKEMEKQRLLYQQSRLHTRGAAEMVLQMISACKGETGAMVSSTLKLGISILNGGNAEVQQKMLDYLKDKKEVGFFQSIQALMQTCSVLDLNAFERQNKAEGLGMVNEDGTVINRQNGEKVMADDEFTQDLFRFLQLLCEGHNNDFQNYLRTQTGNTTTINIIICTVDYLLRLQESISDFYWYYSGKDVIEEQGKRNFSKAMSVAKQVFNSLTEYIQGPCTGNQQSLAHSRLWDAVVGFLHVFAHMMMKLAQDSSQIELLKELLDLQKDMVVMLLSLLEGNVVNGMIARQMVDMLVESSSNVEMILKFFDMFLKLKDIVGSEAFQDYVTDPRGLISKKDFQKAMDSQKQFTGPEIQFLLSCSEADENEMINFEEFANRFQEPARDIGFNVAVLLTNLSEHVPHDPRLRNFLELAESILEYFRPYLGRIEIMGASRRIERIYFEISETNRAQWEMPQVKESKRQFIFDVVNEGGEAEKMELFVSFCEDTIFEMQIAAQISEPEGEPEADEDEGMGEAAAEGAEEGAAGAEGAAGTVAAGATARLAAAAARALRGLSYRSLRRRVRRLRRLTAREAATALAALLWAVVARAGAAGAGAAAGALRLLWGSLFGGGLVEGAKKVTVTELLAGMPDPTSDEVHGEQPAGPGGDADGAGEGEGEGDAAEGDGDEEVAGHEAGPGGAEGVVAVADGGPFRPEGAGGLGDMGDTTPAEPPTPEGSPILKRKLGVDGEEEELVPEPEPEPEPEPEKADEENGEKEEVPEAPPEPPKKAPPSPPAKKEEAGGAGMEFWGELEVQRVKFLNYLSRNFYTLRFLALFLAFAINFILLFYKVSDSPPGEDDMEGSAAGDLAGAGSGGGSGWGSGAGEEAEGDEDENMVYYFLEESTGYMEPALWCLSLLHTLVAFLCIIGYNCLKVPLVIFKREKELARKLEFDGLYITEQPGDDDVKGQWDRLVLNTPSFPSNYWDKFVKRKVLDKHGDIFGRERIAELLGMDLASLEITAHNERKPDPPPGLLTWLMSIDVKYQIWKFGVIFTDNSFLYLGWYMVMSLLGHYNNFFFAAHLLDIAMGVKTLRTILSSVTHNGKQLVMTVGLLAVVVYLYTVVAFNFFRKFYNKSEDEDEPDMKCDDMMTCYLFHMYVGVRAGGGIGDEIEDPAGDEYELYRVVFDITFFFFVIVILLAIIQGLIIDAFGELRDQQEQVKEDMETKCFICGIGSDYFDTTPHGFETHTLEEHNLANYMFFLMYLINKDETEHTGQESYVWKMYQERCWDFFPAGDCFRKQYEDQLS

Target: rabbit skeletal muscle ryanodine receptor Ca^2+ release channel (RyR1) (Oryctolagus cuniculus, UniProt P11716)
Assay: [^3H]ryanodine binding/displacement assay with SR membrane vesicles

`CC(C)[C@@]1(O)[C@@H](OC(=O)c2ccc[nH]2)[C@@]2(O)[C@@]3(C)C[C@]4(O)O[C@@]5([C@H](O)[C@@H](C)CC[C@]35O)[C@@]2(O)[C@@]14C` [ryanodine] gave an IC50 of 5.3 ± 0.4 nM and a Ki of 1.4 ± 0.2 nM.
